{"source": "patent US20060036086A1", "about": "“Use of signal transduction inhibitors and combination therapies for the prevention or treatment of cancer and angiogenesis related diseases” (priority 2002, published 2006)", "key": {"[1]": {"test_system": "angiogenesis related genes", "experiment": "Expression of angiogenesis related genes in tumors in vivo (Human Cancer/angiogenesis-2 GEArray kit, Northern blot)", "design": "species or system SCID mice", "text": "(§1) Based on the finding that the vascular effect of Herceptin was very stable throughout the course of the study, together with the known diversity of human epidermal growth factor receptor pathways (Yarden et al., Nat. Rev. Mol. Cell Biol. 2:127-137, 2001), we hypothesized that Herceptin treatment affects multiple pro- and anti-angiogenic factors. To test this hypothesis, we examined 23 angiogenesis related genes using the Human Cancer/angiogenesis-2 GEArray kit (SuperArray Inc., Bethesda, Md.) according to manufacturer's instructions. For this analysis, the gene expression of tumors in vivo and in vitro was measured in the presence and absence of Herceptin. In particular, tumors were removed from Herceptin and control antibody treated mice once the tumors reached 6 mm in size. The tumor tissue was then homogenized, and the cells were lysed. To collect mRNA, the lysate was applied to a spin column containing an oligo-T matrix to bind the polyA termini of the mRNA. The mRNA was then eluted from the matrix, and the mRNA was reversed transcribed in the presence of [^32P]-dCTP to generate radiolabelled cDNA. A 1 μg sample of cDNA was hybridized to the chip overnight, and then the radioactive cDNA bound to the chip was detected. To study the effect of Herceptin on tumor cells in vitro, MDA-MB-361HK cells were plated at a density of 2×10^6 cells/10 cm dish overnight. The cells were treated with 50 μg/ml Herceptin or control human IgG for 72 hours, and the cell lysate was collected for Northern blot analysis and for DNA chip analysis, as described above."}, "[2]": {"test_system": "MDA-MB-361HK cells", "experiment": "Expression of angiogenesis related genes in MDA-MB-361HK cells in vitro (Northern blot)", "format": "cell-based, human", "settings": "50 μg/ml for 72 hours", "text": "as §1, with “The cells were treated with 50 μg/ml Herceptin or control human IgG for 72 hours, and the cell lysate was collected for Northern blot analysis and for DNA chip analysis, as described above.” left out"}, "[3]": {"test_system": "MDA-MB-361HK tumor", "experiment": "MDA-MB-361HK tumor in SCID mouse cranial window, intravital fluorescence microscopy (vessels, permeability, tumor size, survival)", "format": "in vivo, SCID mice", "protocol": "The ability of Herceptin treatment to induce normalization and regression of the vasculature of a HER2 over-expressing human breast carcinoma was tested in vivo. For better in vivo growth of tumors for this analysis, the MDA-MB-361HK cell line (Genentech Inc., San Francisco, Calif.) was derived from MDA-MB-361, a HER2 over-expressing human breast cancer cell line derived from a brain metastasis. MDA-MB-361HK tumor xenografts were established by injection of a single-cell suspension into the dorsal flank of female SCID mice supplemented with an estrogen pellet (17-β-estradiol 0.36 mg, Innovative Research, Sarasota, Fla.) inserted subcutaneously a few days before cell injection. Tumors were serially transplanted up to four generations. Cranial windows were prepared in 8-10 week old female SCID mice as previously described (Jain et al., in Tumor Models In Cancer Research, ed. Teicher, Humana Press Inc., Totowa, N.J., pp. 647-671, 2001). These mice were bred and maintained in our gnotobiotic animal facility. A few days after estrogen supplementation, a piece of MDA-MB-361HK tumor, approximately 1 mm in diameter, was implanted into the cranial windows. Approximately 14 days after tumor implantation, when the tumor became well vascularized (approximately 2 mm in diameter; referred to as treatment day 0), we began treating the animals with intraperitoneal injection of either Herceptin or control human IgG (Genentech), 30 mg/kg, every 3 days. Treatment continued until the tumor diameter reached approximately 6 mm, the size of the window. Then, the mouse was sacrificed, and the tumor was resected for histological and molecular analyses. Animal survival was derived from the time interval between the initiation of treatment and animal sacrifice. Tumor size, vessel density, mean vessel diameter, and vessel volume of the cranial window tumor were analyzed every 3 days from treatment day 0 using intravital fluorescence microscopy and quantified as previously described (Jain et al., supra). For visualization of blood vessels, 10 mg/ml fluorescein isothiocyanate labelled dextran solution (Mr, 2,000,000; Sigma Chemical Co., St. Louis, Mo.) was injected via a tail vein cannula. Vascular permeability to albumin was measured on treatment day 0, day 15, and the day the tumor reached 6 mm, as previously described (Jain et al., supra). Mice were injected with a bolus (100 μl) of 1% tetramethylrhodamine labelled bovine serum albumin (Molecular Probes, Eugene, Oreg.) in saline via the tail vein."}, "[4]": {"settings": "GEArray expression profiling, treated tumors vs control tumors in vivo, tumors 6 mm"}, "[5]": {"settings": "30 mg/kg intraperitoneal every 3 days"}, "[6]": {"settings": "when the tumor reached 6 mm size"}}, "note": "“Also recorded” adds a separate entry of the source.", "data": [{"substance": "Herceptin: monoclonal antibody against human epidermal growth factor receptor 2 (HER2)", "values": [{"measurement": "Expression of angiopoietin-1 (Ang-1)", "setting": "[1]; [4]", "value": "decreased"}, {"measurement": "Expression of plasminogen activator inhibitor-1 (PAI-1)", "setting": "[1]; [4]", "value": "decreased"}, {"measurement": "Expression of thrombospondin-1 (TSP-1)", "setting": "[1]; [4]", "value": "increased"}, {"measurement": "Expression of transforming growth factor alpha (TGF-α)", "setting": "[1]; [4]", "value": "decreased"}, {"measurement": "Expression of vascular endothelial growth factor (VEGF)", "setting": "[1]; [4]", "value": "decreased"}, {"measurement": "VEGF expression, Northern blot analysis", "setting": "[1]; in vivo tumors", "value": "not in vivo"}, {"measurement": "Herceptin mediated change in PAI-1 expression, in vivo compared to in vitro", "setting": "[1]; in vivo tumors vs cultured cells", "value": "greater in vivo compared to in vitro"}, {"measurement": "VEGF expression, Northern blot analysis", "setting": "[2]", "value": "decreased"}, {"measurement": "Length of tumor vessels compared to control antibody treatment", "setting": "[3]; [5]", "value": "not significantly affecting"}, {"measurement": "Volume of tumor vessels compared to control antibody treatment", "setting": "[3]; [5]", "value": "significantly reduced"}, {"measurement": "Vascular permeability compared to control antibody treatment", "setting": "[3]; day 15, 30 mg/kg intraperitoneal every 3 days", "value": "significantly reduced"}, {"measurement": "Vascular permeability", "setting": "[3]; day 15, permeability to albumin, 30 mg/kg intraperitoneal every 3 days", "value": "1.6±1.1 ×10^−7 cm s^−1"}, {"measurement": "Animal survival compared to control antibody treatment", "setting": "[3]; time from initiation of treatment to sacrifice (tumor approximately 6 mm)", "value": "significantly increased; also recorded: significantly extended"}, {"measurement": "Mean vessel diameter of tumor vessels compared to control antibody treatment", "setting": "[3]; up to treatment day 15, 30 mg/kg intraperitoneal every 3 days", "value": "significantly reduced"}, {"measurement": "Tumor size / tumor growth compared to control antibody treatment", "setting": "[3]; up to treatment day 15, 30 mg/kg intraperitoneal every 3 days, 30 mg/kg", "value": "significantly reduced; also recorded: delayed"}, {"measurement": "Mean vessel diameter compared to control antibody treatment", "setting": "[3]; [6]", "value": "significantly reduced"}, {"measurement": "Vascular permeability compared to control antibody treatment", "setting": "[3]; [6]", "value": "significantly reduced"}, {"measurement": "Vessel length compared to control antibody treatment", "setting": "[3]; [6]", "value": "not significantly different"}, {"measurement": "Vessel volume compared to control antibody treatment", "setting": "[3]; [6]", "value": "significantly reduced"}]}]}
